Yeast mating assay B: variants of the scFv Ab-14

The measurements come from Li et al. 2023 (doi:10.1038/s41467-023-39022-2) through the FLAb antibody collection.

Target peptide (SARS-CoV-2 spike, HR2 region): PDVDLGDISGINAS

Parent scFv Ab-14: VH joined to VL by three GGGGS repeats. Changes lie in the heavy chain CDRs alone.
VH: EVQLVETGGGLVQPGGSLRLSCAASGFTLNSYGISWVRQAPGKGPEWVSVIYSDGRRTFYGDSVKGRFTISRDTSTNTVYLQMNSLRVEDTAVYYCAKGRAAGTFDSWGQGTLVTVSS
VL: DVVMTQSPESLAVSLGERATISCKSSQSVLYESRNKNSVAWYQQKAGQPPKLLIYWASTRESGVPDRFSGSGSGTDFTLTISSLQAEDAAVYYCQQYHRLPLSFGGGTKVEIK

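Phage display of a naive human antibody library on the peptide gave the parent. The variants were designed computationally from a first round of random CDR variants and then made and measured. Their group label is 14H_GPLM_HC (GPLM: also part of the Gaussian process libraries; HC: hill climbing; a sequence that several methods proposed may carry one label only). In AlphaSeq, yeast of one mating type display the scFv and yeast of the other type display the target. After mating in shaken culture at 30 °C for 16 h, diploids were selected and their barcode pairs sequenced. Read counts were normalised to the haploid input and turned into Kd by a linear fit to BCL2-family pairs of known affinity, for each replicate. Each pool was mated in six replicate cultures.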

Variants are written as CDR1, CDR2 and CDR3 of the heavy chain (limits as in the source). Parent: GFTLNSYGIS, VIYSDGRRTFYGDSVK, GRAAGTFDS. Scale: log10 of Kd in nM, estimated from mating counts; low values are strong binders. An entry "ND" has no value in the source: the pair was not observed among the diploids in that replicate. This suggests poor binding but is not conclusive. A sequence measured in both rounds can read differently, since the two assays cover different ranges.

CDR-H1 | CDR-H2 | CDR-H3 | log10 Kd (nM) by replicate | empty controls
GFTLNSYGIS | VIYSDGRRTFYSDSVK | GRAAVTFDQ | ND ND ND ND ND ND | 0 of 18
GFSLNDYGIS | VIYSDGRRTFYGDSVK | GRWAGTFIS | 0.84 1.09 1.46 0.93 0.86 0.75 | 0 of 18
GFTLNSYGIS | VIYSDGRRTFYSDSVK | GRIAGTFDS | 1.04 ND 1.74 0.26 ND 1.81 | 0 of 18
GFTLNSYGIS | VIYADGRRTFYGDSVK | GGAAGTFKS | ND ND ND 1.37 ND ND | 0 of 18
GFTLNSYGIS | VIYSDGRRTAYIDSVK | GQAAGTFDS | 0.63 0.71 0.61 0.37 0.43 0.79 | 0 of 18
GFTLNDYGIS | VIYSDGRRTFYGDSVK | GRVAGTFWS | ND ND ND ND ND ND | 0 of 18
GFTLNEYGIS | VIYSDGRRTFYGDSVK | GRLAGTFIS | ND 0.56 ND 1.38 ND 1.81 | 0 of 18
GFTLNDYGIS | VIYSDGRRTWYKDSVK | GRAAGTFDS | 0.44 ND ND ND ND ND | 0 of 18
GFSLNSYGIS | VIYSDGRRTFYGDSVK | GRAAGHFDS | ND ND ND ND ND ND | 0 of 18
GFTLNSYGIS | VIYADGRRTFYGDSVK | GRAAGTFKL | 0.43 0.44 0.30 0.41 0.33 0.69 | 0 of 18
GFTLNEYGIS | VIYSDGRRTFYGDSVK | GREAGTFIS | ND ND ND ND ND ND | 0 of 18
GFTINSYGIS | VIYSDGRRTFYSDSVK | GNAAGTFDS | 1.07 1.24 0.80 0.73 ND 1.78 | 0 of 18
GFTLTEYGIS | VIYSDGRRTFYGDSVK | GRAAVTFDQ | ND ND ND ND ND ND | 1 of 18 (0.99)
GFTLDSYGIS | VIYSDGRRTFYGDSVK | GRAAGTFRD | 2.37 1.96 1.47 1.64 0.70 1.66 | 0 of 18
GFNLNSYGIS | VIYSDGRRTFYDDSVK | GQTAGTFDS | -0.08 0.17 0.45 -0.62 -0.79 -0.11 | 0 of 18
GFTLNEYGIS | VIYSDGRRTFYTDSVK | GRTAGTFDS | 0.12 0.21 -0.08 -0.28 -0.22 -0.16 | 1 of 18 (3.56)
GFSLNDYGIS | VIYSDGRRTFYGDSVK | GRHAGTFIS | ND ND ND ND ND ND | 0 of 18
GFTLNQYGIS | VIYSDGTRTFYSDSVK | GRTAGTFDS | 0.56 0.16 0.19 0.27 0.11 0.18 | 0 of 18
GFTLNEYGIS | VIYSDGRRTFYKDSVK | GRCAGTFDS | ND ND ND ND ND ND | 0 of 18
GFTLNSYGIS | VIYSDGRRTFYDDSVK | GKVAGTFDS | 1.02 0.88 0.88 0.80 1.18 1.11 | 0 of 18
GFTLNEYGIS | VIYSDGRRTFYTDSVK | GRTAGMFDS | 0.60 -0.51 -0.44 -0.36 0.47 -0.25 | 0 of 18
GFELNEYGIS | VIYSDGRRTFYHDSVK | GRTAGTFDS | 0.83 -0.33 -0.32 -0.08 0.11 0.07 | 0 of 18
GFTLNEYGIS | VIYSDGRRTFYIDSVK | GRFAGTFDS | ND 0.21 0.36 0.27 0.30 ND | 0 of 18
GFTLNEYGIS | VIYSDGRRTFYTDSVK | GFAAGTFDS | 0.54 0.53 0.49 0.67 0.26 1.02 | 0 of 18
GFTLNQYGIS | VIYSDGRRTFYSDSVK | GRHAGTFDS | 2.22 3.69 2.01 3.04 3.39 1.73 | 0 of 18
GFTLNEYGIS | VIYSDGRRTFYKDSVK | GRVAGTFDS | ND ND -0.61 ND -1.77 -1.17 | 0 of 18
GFYLNSYGIS | VIYSDGRRTFYADSVK | GQLAGTFDS | 1.48 0.85 1.54 1.17 1.08 1.99 | 1 of 18 (1.43)
GFTLNEYGIS | VIYSDGRRTFYGDRVK | GRAAVTFDK | ND ND ND ND ND ND | 0 of 18
GFSLNSYGIS | VIYSDGRRTFYSDSVK | GKAGGTFDS | 1.23 0.63 1.38 0.97 0.90 1.53 | 1 of 18 (3.12)
GFTLNEYGIS | VIYSDGRRTFYGDSVK | GRAPVTFDQ | ND ND ND ND ND ND | 0 of 18
GFELNDYGIS | VIYSDGRRTQYIDSVK | GRAAGTFDS | 2.21 0.63 0.92 1.67 0.81 0.64 | 0 of 18
GFVLNDYGIS | VIYSDGRRTFYGDSVK | GKAAGTFDS | ND 1.05 0.58 -0.53 0.01 1.73 | 0 of 18

Excerpt, the first 4 entries:

CDR-H1,CDR-H2,CDR-H3,log10 Kd (nM) by replicate,empty controls
GFTLNSYGIS,VIYSDGRRTFYSDSVK,GRAAVTFDQ,ND ND ND ND ND ND,0 of 18
GFSLNDYGIS,VIYSDGRRTFYGDSVK,GRWAGTFIS,0.84 1.09 1.46 0.93 0.86 0.75,0 of 18
GFTLNSYGIS,VIYSDGRRTFYSDSVK,GRIAGTFDS,1.04 ND 1.74 0.26 ND 1.81,0 of 18
GFTLNSYGIS,VIYADGRRTFYGDSVK,GGAAGTFKS,ND ND ND 1.37 ND ND,0 of 18

As a blank, each scFv also met three strains without target: over all heavy chain designs, 1% of these pairings were detected, typically at 2.08 and seldom below 0.84. For each scFv, signals with the empty controls are counted beside the result, with their mean in brackets. In the paper, a design with two or fewer of six values counts as a poor binder.